# According to PubChem BioAssay AID743256 (The Scripps Research Institute Molecular Screening Center, 2014):
# Amino acid sequences for entries named in this document (tags omitted). A change or cut given only in a name is not applied to a line headed by its entry.
# UniProt O14672: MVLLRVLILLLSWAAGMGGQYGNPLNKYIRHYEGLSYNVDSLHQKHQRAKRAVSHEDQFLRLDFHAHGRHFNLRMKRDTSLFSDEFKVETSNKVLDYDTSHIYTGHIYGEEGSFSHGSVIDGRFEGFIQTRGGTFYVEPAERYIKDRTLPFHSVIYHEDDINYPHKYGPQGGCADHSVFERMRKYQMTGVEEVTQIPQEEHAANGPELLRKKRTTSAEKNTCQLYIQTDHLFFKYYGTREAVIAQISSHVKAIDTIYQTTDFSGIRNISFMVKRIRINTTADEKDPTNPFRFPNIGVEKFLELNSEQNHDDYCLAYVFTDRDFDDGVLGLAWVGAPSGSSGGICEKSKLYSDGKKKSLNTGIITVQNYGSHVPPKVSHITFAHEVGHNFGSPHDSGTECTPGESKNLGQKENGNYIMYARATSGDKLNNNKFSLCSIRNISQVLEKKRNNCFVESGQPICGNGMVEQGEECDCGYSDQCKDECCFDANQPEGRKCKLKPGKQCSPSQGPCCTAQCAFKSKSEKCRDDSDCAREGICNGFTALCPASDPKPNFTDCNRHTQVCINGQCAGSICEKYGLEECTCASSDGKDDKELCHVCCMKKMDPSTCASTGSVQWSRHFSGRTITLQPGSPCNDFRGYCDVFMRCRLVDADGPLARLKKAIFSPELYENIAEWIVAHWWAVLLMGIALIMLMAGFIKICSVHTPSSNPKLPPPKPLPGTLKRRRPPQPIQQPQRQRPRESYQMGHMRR
# This is a selection; strong and weak results do not stand in their true shares. Calls of active or inactive are those of the source.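 Rule for the calls: active = mean inhibition over the triplicate runs exceeds the activity threshold set in the earlier primary screen (cut at about 20% in these data); inactive = the rest.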
# Target: Disintegrin and metalloproteinase domain-containing protein 10 (Homo sapiens) (UniProt O14672)
# Assay: blockers of ADAM10 peptide cleavage – biochemical, FRET, human ADAM10, counter-screen for ADAM17 exosite inhibitor project (AID 743256);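 note: 0% = DMSO wells and 100% = marimastat wells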
# Conditions: recombinant ADAM10, EDANS/DABCYL FRET peptide cleavage, 3 h; at 6.95 µM; stronger effect = higher value
# Procedure, shortened: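 Test system: human ADAM10 metalloprotease enzyme in a cell-free biochemical assay. Reagent: DM2 FRET peptide substrate. Timing: 30 min preincubation and 3 h reaction at 25 °C. Read-out basis: percent inhibition scaled between DMSO and marimastat control wells. Control set: 1 µM marimastat (high) and DMSO (low). Detection: FRET fluorescence readout.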
row,SMILES,inhibition
1,O=[N+]([O-])c1cc([N+](=O)[O-])c(CCNc2ccccc2)c([N+](=O)[O-])c1,inactive: -1.4%
